In general, pEC50 refers to −log10 of the EC50, conventionally taken in molar units. Higher therefore signals a low EC50.

The target of the assay is T1, GABA-A receptor; alpha-1/beta-3/gamma-2 (Homo sapiens, UniProt P14867+P18507+P28472).
T1 sequence (P14867 whole entry): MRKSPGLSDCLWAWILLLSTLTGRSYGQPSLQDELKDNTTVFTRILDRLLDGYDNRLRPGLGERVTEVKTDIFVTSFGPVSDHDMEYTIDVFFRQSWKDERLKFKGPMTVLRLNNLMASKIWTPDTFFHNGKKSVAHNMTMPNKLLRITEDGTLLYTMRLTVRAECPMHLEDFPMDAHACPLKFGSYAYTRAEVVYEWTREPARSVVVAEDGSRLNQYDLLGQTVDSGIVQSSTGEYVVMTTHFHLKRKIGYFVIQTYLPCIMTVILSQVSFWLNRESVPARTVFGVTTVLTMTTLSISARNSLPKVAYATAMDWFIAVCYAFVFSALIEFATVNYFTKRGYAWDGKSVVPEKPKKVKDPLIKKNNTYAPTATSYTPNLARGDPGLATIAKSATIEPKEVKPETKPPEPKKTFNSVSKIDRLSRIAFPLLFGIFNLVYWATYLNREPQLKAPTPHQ
T1 sequence (P18507 whole entry): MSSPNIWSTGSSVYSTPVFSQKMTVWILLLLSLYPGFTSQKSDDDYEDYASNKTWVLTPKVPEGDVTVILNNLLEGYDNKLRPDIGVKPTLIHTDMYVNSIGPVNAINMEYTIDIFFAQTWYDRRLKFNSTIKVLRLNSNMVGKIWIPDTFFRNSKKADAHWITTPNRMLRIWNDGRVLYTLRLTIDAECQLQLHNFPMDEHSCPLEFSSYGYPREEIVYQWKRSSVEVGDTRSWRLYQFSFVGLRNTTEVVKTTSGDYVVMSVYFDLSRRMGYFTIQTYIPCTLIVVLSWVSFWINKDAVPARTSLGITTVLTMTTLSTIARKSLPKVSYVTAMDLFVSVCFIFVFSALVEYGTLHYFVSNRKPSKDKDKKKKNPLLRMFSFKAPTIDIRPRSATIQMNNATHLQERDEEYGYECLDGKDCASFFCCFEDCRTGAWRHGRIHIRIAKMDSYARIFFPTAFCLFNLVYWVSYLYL
T1 sequence (P28472 whole entry): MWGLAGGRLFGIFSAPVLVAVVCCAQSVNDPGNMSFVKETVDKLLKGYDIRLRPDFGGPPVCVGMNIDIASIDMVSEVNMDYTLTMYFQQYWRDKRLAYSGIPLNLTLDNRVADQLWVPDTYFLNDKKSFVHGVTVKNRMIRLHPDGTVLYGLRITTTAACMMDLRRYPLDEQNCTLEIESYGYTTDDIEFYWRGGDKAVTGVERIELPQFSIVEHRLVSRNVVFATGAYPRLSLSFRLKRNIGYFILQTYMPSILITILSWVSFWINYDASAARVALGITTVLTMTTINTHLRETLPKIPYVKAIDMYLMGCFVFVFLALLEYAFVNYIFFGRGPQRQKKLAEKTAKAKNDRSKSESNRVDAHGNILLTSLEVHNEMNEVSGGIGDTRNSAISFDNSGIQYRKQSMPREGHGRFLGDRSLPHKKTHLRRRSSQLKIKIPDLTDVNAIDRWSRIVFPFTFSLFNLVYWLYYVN
The assay can be described thus: Positive allosteric modulation of [3H]muscimol binding to full length human N-terminal flag-tagged alpha1-beta3-C-terminal 1D4-tagged gamma2 GABAA receptor extracted from Tetracycline-resistant HEK293 cell membrane. It is filed as cell membranes.

SMILES strings stand for the structures. pEC50: −log10 of the molar value.

The molecule `C=CC[C@@]1(c2cccc(C3(C(F)(F)F)N=N3)c2)C(=O)NC(=O)N(C)C1=O` gave a pEC50 of 5.89.

These data come from ChEMBL document CHEMBL6134857, “Novel Spiro-Barbiturates Can Reverse the Action of General Anesthetics on the GABAAR” (J Med Chem, 2025).
